Experimental data taken from BindingDB's records for doi:10.7270/Q2CF9NG2 (Srmlsc, 2007).

Biological target: T1, Mevalonate kinase (Streptococcus pneumoniae serotype 2 (strain D39 / NCTC 7466), UniProt A0A0H2ZQX9)
T1 sequence (A0A0H2ZQX9 whole entry): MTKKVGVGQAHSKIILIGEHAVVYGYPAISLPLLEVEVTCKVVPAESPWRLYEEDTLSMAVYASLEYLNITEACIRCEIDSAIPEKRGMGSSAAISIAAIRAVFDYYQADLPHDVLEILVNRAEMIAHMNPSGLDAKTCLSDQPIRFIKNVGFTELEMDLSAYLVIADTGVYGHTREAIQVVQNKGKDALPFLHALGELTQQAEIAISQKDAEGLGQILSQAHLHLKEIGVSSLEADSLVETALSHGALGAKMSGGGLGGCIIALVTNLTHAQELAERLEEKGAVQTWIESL

O=c1c2ccccc2[se]n1-c1ccccc1 [2-Phenyl-benzo[d]isoselenazol-3-one]
IC50: 287 nM
